Key:
[1] = Survey of relative performance of fluorescent derivatizing agents against a cooling water background; assay type: physicochemical
Description: In preferred embodiment the derivatizing agents are selected from those that a reasonably high "relative performance" for a given background. As noted above, a molecule is generally considered highly fluorescent when it has a fluorescent quantum efficiency, or fluorescent quantum yield, within the range of from about 0.1 to about 1.0, and a light absorbance molar extinction coefficient of at least 1,000. The magnitude of fluorescent signal, or relative fluorescence, is the product of the fluorescent quantum yield multiplied times the light absorbance molar extinction coefficient. […] The "relative performance", as this phrase is used herein, is the ratio of the relative fluorescence of a composition to the relative fluorescence of a given background medium. The fluorescence readings are typically measured at the excitation/emission wavelengths that represent major peaks for the given fluorescent tagged polymer. […] Industrial cooling waters generally have an overall higher fluorescent intensity than industrial boiler waters, and therefore a degree of polymer tagging that is reasonably high for use in boiler waters may not be sufficiently high for cooling waters, since of course the intensity of fluorescence must not be overwhelmed by the background fluorescence and the intensity of fluorescence is dependent on the concentration level of the fluorescent species. […]

[2] = tested on: rats; conditions: cited from earlier work

Structure (SMILES): Nc1cc(S(=O)(=O)O)c2cccc(S(=O)(=O)O)c2c1 [2-amino-4,8-naphthalene disulfonic acid]
- Relative Intensity Value, Composition ([1]; 0.4 ppm (acid actives), 1,5-naphthalene disulfonic acid standard = 100%, at own fluorescence maximum): 564%
- Relative Performance ([1]; composition relative intensity / cooling water background relative intensity): 61
- Reported LD50 (oral/rats) [2]: > 5.0 grams/kilogram

Source: patent US5260386A, “Synthesis of tagged polymers by post-polymerization (trans) amidation reaction” (Nalco Chemical Company, priority 1993, dated 1993)
